These results are taken from patent US10793582B2, “Bicyclic heterocyclic compound” (MITSUBISHI TANABE PHARMA CORPORATION, priority 2015, dated 2020).

The chains behind the UniProt entries cited, without tags or fusion partners. Residues count along the entry.
UniProt Q8N5Z0, 30-425 limits assumed: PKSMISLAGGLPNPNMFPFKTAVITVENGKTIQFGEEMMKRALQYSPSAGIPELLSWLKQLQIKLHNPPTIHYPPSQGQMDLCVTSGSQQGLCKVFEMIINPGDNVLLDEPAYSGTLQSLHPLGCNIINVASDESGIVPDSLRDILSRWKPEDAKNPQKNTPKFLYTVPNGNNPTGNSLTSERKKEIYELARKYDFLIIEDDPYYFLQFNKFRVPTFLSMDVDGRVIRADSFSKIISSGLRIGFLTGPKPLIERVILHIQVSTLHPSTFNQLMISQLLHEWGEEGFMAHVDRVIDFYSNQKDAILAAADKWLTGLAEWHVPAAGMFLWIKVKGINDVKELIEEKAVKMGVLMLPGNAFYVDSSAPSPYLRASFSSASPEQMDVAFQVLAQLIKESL

The assay has as its target human recombinant KAT-II (Homo sapiens (Human), UniProt Q8N5Z0). Put plainly: KAT-II inhibitory test. The conditions noted are these: read-out: KAT-II inhibitory test IC50, 3.0 μmol/L kynurenine, 37° C. for 1 hr, kynurenic acid by HPLC. Here is the method:
The compounds described in the above-mentioned Examples were used for the KAT-II inhibitory test.
Human recombinant KAT-II was prepared as follows.
His tag and maltose binding protein tag were added to the N-terminal of a gene encoding human KAT-II (Genbank accession number: AF481738.1), and the obtained gene was incorporated into pET32 (Merck Nihon Millipore), which is an Escherichia coli expression vector. Human recombinant KAT-II produced by BL21(DE3) Escherichia coli (Merck Nihon Millipore, 69450) transformed using the plasmid was purified using an amylose resin column (New England Biolabs, #800-21 L).
The inhibitory action of the test compound on human recombinant KAT-II was determined by the following method. […]
The resultant kynurenic acid was quantified as follows by high performance liquid chromatography. An enzyme reaction mixture was separated by an octadecylsilane reversed-phase column (SC-50DS, Eicom Corporation; mobile phase: 250 mmol/L zinc acetate, 50 mmol/L sodium acetate, and 5.0% acetonitrile (pH 6.2)) incubated at 30° C., and kynurenic acid was quantified using a fluorescence detector (RF-20Axs, Shimadzu Corporation) at excitation wavelength 354 nm, detection wavelength 460 nm. […]

Each structure is given as a SMILES string.

Regarding `COC1(c2cnc3nc(N4CCC[C@@H]4C(=O)NCc4ccccc4)sc3c2)COC1`, the IC50 amounted to 770 nM.
